Source: article PMC12714728, “VHH antibody loop guides design of a synthetic macrocyclic peptide that potently blocks influenza virus membrane fusion” (npj Viruses, 2025)

Tested on: H1/NCa HA (A/New Caledonia/20/1999 (H1N1))
Type: binding, influenza A virus

Q: With `CSCC[C@@H]1NC(=O)CNC(=O)CNC(=O)[C@H](C)NC(=O)[C@H](C(C)C)NC(=O)CNC(=O)[C@H](CC(C)C)NC(=O)[C@@H]2CCCN2C(=O)[C@H](CC(=O)O)NC(=O)[C@H](CCC(=O)O)NC(=O)[C@H](Cc2ccc(O)cc2)NC(=O)[C@H](CC(C)C)NC(=O)[C@H](CO)NC(=O)CNC(=O)[C@H]2CCCN2C(=O)[C@H](C(C)C)NC(=O)CNC1=O` [CP5] as the compound, how does the IC50 read?
A: The IC50 was 11.2 µM.
